For one molecule, IC50 results are on record in ChEMBL document CHEMBL1144677, “Novel quinazolinone derivatives as 5-HT7 receptor ligands” (Bioorg Med Chem, 2008).

By UniProt entry, the sequences of proteins in these tests, tags left out. Where a name states a change or a piece, a line headed by the entry shows the natural chain unless it says otherwise.
UniProt P28335: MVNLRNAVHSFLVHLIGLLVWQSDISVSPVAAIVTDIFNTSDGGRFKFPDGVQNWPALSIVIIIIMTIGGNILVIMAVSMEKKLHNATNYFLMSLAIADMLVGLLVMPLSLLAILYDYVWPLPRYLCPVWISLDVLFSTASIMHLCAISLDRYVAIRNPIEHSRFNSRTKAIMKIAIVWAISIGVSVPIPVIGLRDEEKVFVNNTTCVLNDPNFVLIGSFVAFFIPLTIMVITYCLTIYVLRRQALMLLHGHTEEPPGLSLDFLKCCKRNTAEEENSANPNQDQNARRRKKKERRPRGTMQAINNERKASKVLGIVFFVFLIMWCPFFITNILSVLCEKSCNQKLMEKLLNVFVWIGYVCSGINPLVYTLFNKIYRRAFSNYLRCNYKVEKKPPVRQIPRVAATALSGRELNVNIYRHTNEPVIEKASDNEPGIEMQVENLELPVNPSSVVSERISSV

Structures are written as SMILES.

The target in the test is 5-hydroxytryptamine receptor 2C (Homo sapiens, UniProt P28335).

`Cc1cccc(N2CCN(CCCC(=O)NCc3nc4ccccc4c(=O)n3-c3ccccc3)CC2)c1C` gave a 50% inhibitory concentration (IC50) of 0.46 µM.
